Data from patent publication US20070116781A1, “Hydrogen Cyanamide Pesticide Formulations” (priority 2005, published 2007).

System: weed combination
Assay: Herbicidal activity of citric acid alone, pre-emergence, covered pots
Format: in vivo
Experimental: The weeds used in these tests were the same as those used in Example 4, and observations were made of the effects on individual weeds as well as the weed population as a whole.
A stock solution of citric acid was made in the manner described in Example 4, and all other test parameters were likewise the same as in Example 4. Weed counts were taken from the various pots at intervals of 7, 12, and 28 days after application of the citric acid, and data analyses were performed in the same manner as Example 1.

## O=C(O)CC(O)(CC(=O)O)C(=O)O [C6H8O7, 2-hydroxy-1,2,3-propanetricarboxylic acid]
12 d after treatment, citric acid 150 mg/kg soil
  Weeds Per Pot (weed combination): 22.0
12 d after treatment, citric acid 250 mg/kg soil
  Weeds Per Pot (weed combination): 22.0
28 d after treatment, citric acid 100 mg/kg soil
  Weeds Per Pot (weed combination): 23.5
28 d after treatment, citric acid 150 mg/kg soil
  Weeds Per Pot (weed combination): 23.0
28 d after treatment, citric acid 250 mg/kg soil
  Weeds Per Pot (weed combination): 22.0
